Experimental data reported in IntAct's records for PubMed 35512704.

B1: RAC-alpha serine/threonine-protein kinase (Homo sapiens), P31749 (parent)
chain: MSDVAIVKEGWLHKRGEYIKTWRPRYFLLKNDGTFIGYKERPQDVDQREAPLNNFSVAQCQLMKTERPRPNTFIIRCLQWTTVIERTFHVETPEEREEWTTAIQTVADGLKKQEEEEMDFRSGSPSDNSGAEEMEVSLAKPKHRVTMNEFEYLKLLGKGTFGKVILVKEKATGRYYAMKILKKEVIVAKDEVAHTLTENRVLQNSRHPFLTALKYSFQTHDRLCFVMEYANGGELFFHLSRERVFSEDRARFYGAEIVSALDYLHSEKNVVYRDLKLENLMLDKDGHIKITDFGLCKEGIKDGATMKTFCGTPEYLAPEVLEDNDYGRAVDWWGLGVVMYEMMCGRLPFYNQDHEKLFELILMEEIRFPRTLGPEAKSLLSGLLKKDPKQRLGGGSEDAKEIMQHRFFAGIVWQHVYEKKLSPPFKPQVTSETDTRYFDEEFTAQMITITPPDQDDSMECVDSERRPHFPQFSYSASGTA
partner: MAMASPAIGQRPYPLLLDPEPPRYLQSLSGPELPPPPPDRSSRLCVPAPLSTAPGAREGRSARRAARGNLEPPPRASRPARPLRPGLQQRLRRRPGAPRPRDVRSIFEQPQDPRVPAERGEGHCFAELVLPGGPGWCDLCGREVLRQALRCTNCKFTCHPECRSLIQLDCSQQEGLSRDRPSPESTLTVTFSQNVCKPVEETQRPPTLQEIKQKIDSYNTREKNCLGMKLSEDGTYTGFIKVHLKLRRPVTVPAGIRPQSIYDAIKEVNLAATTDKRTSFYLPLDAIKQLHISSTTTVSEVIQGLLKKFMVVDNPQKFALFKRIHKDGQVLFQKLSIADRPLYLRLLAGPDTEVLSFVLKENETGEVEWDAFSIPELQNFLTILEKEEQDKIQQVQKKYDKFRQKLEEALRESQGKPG
B2: RAC-alpha serine/threonine-protein kinase (Homo sapiens), P31749 (parent)
chain: B1 chain
partner: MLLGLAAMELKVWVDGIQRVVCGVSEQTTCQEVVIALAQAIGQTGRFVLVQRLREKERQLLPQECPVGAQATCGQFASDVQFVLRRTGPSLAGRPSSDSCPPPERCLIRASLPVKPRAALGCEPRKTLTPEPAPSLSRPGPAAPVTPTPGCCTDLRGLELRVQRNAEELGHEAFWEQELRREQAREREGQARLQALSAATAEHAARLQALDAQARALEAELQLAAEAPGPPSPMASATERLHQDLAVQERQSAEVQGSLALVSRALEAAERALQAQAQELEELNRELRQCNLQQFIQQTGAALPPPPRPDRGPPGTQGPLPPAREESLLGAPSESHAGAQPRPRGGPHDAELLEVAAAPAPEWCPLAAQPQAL
B3: RAC-alpha serine/threonine-protein kinase (Homo sapiens), P31749 (parent)
chain: B1 chain
partner: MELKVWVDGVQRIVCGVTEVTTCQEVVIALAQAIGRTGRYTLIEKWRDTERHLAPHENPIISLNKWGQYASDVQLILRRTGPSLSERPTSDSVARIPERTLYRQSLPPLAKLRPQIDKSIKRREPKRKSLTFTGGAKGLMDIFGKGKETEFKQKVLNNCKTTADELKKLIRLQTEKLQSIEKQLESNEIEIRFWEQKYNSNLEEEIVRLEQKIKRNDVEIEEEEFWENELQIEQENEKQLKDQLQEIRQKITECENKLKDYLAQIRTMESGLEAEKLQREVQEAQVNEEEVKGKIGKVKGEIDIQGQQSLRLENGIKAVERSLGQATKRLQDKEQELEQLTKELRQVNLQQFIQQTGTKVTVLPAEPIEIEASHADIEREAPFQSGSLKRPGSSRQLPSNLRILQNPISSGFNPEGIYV
B4: RAC-alpha serine/threonine-protein kinase (Homo sapiens), P31749 (parent)
chain: B1 chain
partner: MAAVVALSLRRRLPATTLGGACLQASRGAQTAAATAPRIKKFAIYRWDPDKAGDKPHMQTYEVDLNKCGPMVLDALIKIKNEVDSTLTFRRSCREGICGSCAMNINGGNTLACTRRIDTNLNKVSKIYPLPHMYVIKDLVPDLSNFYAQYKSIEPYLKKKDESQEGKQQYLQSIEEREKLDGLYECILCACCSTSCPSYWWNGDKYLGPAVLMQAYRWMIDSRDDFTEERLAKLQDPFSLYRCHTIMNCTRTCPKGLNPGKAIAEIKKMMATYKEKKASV
B5: RAC-alpha serine/threonine-protein kinase (Homo sapiens), P31749 (parent)
chain: B1 chain
partner: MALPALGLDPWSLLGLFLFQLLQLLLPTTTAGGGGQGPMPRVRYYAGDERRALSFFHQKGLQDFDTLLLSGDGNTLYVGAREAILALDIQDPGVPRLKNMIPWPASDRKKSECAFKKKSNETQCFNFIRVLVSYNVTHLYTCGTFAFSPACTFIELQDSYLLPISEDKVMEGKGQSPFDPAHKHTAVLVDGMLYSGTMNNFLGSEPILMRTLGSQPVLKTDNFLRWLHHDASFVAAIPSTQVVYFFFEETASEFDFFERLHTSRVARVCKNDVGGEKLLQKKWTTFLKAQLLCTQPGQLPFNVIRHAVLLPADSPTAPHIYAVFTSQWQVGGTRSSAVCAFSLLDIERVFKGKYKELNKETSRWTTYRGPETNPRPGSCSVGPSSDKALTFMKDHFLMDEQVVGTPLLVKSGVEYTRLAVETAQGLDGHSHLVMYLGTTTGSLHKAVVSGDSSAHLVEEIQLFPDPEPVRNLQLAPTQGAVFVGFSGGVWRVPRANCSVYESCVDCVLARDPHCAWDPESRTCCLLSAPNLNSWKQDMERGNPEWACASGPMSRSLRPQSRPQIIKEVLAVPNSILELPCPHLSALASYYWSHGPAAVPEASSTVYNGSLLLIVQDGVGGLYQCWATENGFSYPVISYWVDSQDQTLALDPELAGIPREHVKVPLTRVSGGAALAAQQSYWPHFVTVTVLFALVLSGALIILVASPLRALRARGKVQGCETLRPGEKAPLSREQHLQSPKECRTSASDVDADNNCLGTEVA
B6: RAC-alpha serine/threonine-protein kinase (Homo sapiens), P31749 (parent)
chain: B1 chain
partner: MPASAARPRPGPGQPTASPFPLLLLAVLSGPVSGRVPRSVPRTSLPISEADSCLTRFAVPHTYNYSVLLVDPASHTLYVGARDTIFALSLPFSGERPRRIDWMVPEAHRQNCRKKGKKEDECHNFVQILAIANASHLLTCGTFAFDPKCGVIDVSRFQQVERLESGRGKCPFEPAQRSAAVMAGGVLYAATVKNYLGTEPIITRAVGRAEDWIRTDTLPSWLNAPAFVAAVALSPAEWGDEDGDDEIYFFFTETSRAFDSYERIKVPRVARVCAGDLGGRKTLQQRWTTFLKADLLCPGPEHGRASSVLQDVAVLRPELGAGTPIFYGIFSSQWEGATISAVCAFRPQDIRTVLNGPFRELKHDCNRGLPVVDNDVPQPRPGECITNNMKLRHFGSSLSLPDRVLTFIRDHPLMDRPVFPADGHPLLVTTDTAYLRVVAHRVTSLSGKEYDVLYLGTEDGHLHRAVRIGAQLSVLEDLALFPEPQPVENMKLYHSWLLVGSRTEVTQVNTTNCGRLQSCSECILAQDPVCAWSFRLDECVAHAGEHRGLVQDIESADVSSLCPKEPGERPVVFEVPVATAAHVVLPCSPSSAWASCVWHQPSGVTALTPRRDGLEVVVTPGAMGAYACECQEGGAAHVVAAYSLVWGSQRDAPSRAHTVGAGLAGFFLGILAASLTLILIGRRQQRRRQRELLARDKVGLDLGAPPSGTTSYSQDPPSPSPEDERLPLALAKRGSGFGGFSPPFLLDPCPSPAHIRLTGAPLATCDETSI

Variants of: B1
Details: with rasf5_human RASSF5, Q8WWW0

Variant | effect of a mutation on the interaction
E17K | causing an interaction

Variants of: B1
Details: with rasf5_human RASSF5, Q8WWW0
Remark: another data set of the same source

Variant | effect of a mutation on the interaction
E17K | increasing interaction strength

Variants of: B2
Details: with rasf7_human RASSF7, Q02833

Variant | effect of a mutation on the interaction
E17K | causing an interaction

Variants of: B3
Details: with rasf8_human RASSF8, Q8NHQ8

Variant | effect of a mutation on the interaction
E17K | causing an interaction

Variants of: B4
Details: with sdhb_human SDHB

Variant | effect of a mutation on the interaction
E17K | causing an interaction

Variants of: B5
Details: with sem4a_human SEMA4A

Variant | effect of a mutation on the interaction
E17K | causing an interaction

Variants of: B6
Details: with sem4f_human SEMA4F

Variant | effect of a mutation on the interaction
E17K | causing an interaction
